G9a block: blocks human histone lysine methyltransferase G9a; Q96KQ7; G9a H3K9 monomethylation, AlphaScreen, 2 h; Potency, µM (highest dose often 102 µM), for inactives: at the highest dose activity, negative = inhibition, actives largely listed as inhibitors; actives 8.8% (n = 350,000); AID 504332; further: potency means the concentration at half of the fitted maximal effect; on the % scale 0 is the no-effect control and ±100 the full control effect; nearly all actives have a fitted effect of over 75% in size
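AlphaScreen detection with an anti-monomethyl H3K9 antibody quantified product after a 2 h room-temperature reaction containing 500 nM biotinylated H3K9 peptide, 20 µM SAM and 20 nM enzyme, which had been preincubated 15 min with compound.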
LMNA splice mod: modulators of lamin A splicing | HeLa LMNA splicing GFP/RFP minigene ratio, 48 h | Potency, µM (top dose mostly 46.1 µM), inactives show at the top dose ratio change, negative = inhibition, hits mostly inhibitors | actives 0.01% (n = 200,000) | AID 1487; active means well fitted inhibition curve with a large enough effect in the signal ratio, with a control signal flat, not every such curve was filed as active; inconclusive means small, poorly fitted or top-dose-only effect, or effect the other way, or a change in a side signal; the % refers to the signal ratio; further: potency means the concentration at half of the fitted maximal effect; on the % scale 0 is the no-effect control and ±100 the full control effect
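S3 HeLa cells stably expressing lamin A-EGFP splicing minigene plus DsRed2, 600 cells/well, 48 h compound exposure at 37C. Laser-scanning cytometry; analysed as GFP (500-530 nm)/RFP (575-640 nm) total intensity ratio; 0.5% DMSO vehicle.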
ALDH1A1 inh: ALDH1A1 (human) enzyme inhibition | actives 7.3% (n = 220,000) | Potency, µM (titrated, usually from 75.3 µM), for inactives: at the top dose activity, negative = inhibition, actives largely listed as inhibitors | P00352 | Purified ALDH1A1, NADH fluorescence, propionaldehyde substrate; active means well fitted inhibition curve with a large enough effect, not every such curve was filed as active; inconclusive means small, poorly fitted or top-dose-only effect, or another doubt; inactive means no such curve, though single readings can be large or run the other way;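 further: potency means the concentration at half of the fitted maximal effect; plate controls were no enzyme wells and a reference inhibitor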
JMJD2E inh: JMJD2E (human) inhibition. B2RXH2. JMJD2E catalytic domain, FDH-coupled NADH fluorescence (FDH is formaldehyde dehydrogenase). Potency, µM (top dose mostly 57.1 µM), for the others: top-dose activity change, negative = inhibition, hits mostly inhibitors. actives 1.6% (n = 230,000). AID 2147; active means well fitted inhibition curve with a large enough effect, not every such curve was filed as active; inconclusive means small, poorly fitted or top-dose-only effect, or another doubt; inactive means no such curve, though single readings can be large or run the other way;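 further: potency means the concentration at half of the fitted maximal effect; 0% = wells with enzyme and -100% = buffer wells without enzyme; nearly all actives have a fitted effect of over 50% in size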
miR-21 reporter: miR-21 reporter, rising signal | Potency, µM (highest dose often 38.3 µM), for inactives: at the highest dose reporter change, positive = more light | 340,000 tested, under 10 active | HeLa miR-21 FLuc reporter, luciferase, 48 h; active = well fitted rising curve with a large enough effect; inconclusive = small, poorly fitted or top-dose-only effect; inactive = no such curve, though single readings can be large or run the other way;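 note: % of control where 0% means no effect; miR-21 action dims this reporter so a rising signal means less miR-21 action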
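Using DMEM plus 10% FBS, HeLa miR-21-FLuc cells are incubated with test compounds (final up to about 40uM) for 48 hours; firefly luciferase signal is then imaged following reagent-mediated lysis.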
Sfp PPTase inh: inhibitors of Bacillus subtilis Sfp phosphopantetheinyl transferase | Q9F4F7 | Biochemical Sfp PPTase activity, qHTS | Potency, µM, inactives show max response, negative = inhibition, most hits filed as inhibitors | 310,000 tested, 3.5% active | AID 1490; active = well fitted inhibition curve with a large enough effect; inconclusive = small, poorly fitted or top-dose-only effect, or another doubt; inactive = no such curve, though single readings can be large or run the other way;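 note: the enzyme is Sfp with the accession as filed and its product quenches rhodamine fluorescence; potency is the fitted concentration of half-maximal effect; 0% = enzyme reaction without inhibitor and -100% = no enzyme wells; top concentration of the series not given in the record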
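Step 1, compound plus 15 nM Sfp-PPTase, 15 min, room temperature. Step 2, add rhodamine-CoA (5 uM) and BHQ-2-YbbR (12.5 uM). Step 3, read 525/598 nm fluorescence at 0 and 30 min.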
* hit, by the source's call; ? = inconclusive; nt = no result; [ ] = another dose, or the depositor's remark. A selection: hits, their analogues and other compounds. The true share with any hit is near 13%. Unless noted, the call rests on the fitted dose curve; in most records, active means well fitted curve in the direction sought with a large enough effect; inconclusive means small, poorly fitted or top-dose-only effect, or another doubt; inactive means no such curve, though single readings can be large; an effect the other way counts as inactive or inconclusive.

Results follow in this order: G9a block, LMNA splice mod, ALDH1A1 inh, JMJD2E inh, miR-21 reporter, Sfp PPTase inh
> O=C1c2ccccc2C(=O)c2c1ccc1c(=O)n(C3CCCCC3)[nH]c21
 : 7.94µM*, ?, -10.9%, -10.4%, -9.9%, -12.2%
> CCOC(=O)c1ccccc1NC(=O)CSc1ncc2c(n1)-c1ccccc1N(CC)S2(=O)=O
 : 18.1%[59 µM], nt, nt, nt, -0.4%, nt
> CCOc1ccc(CNC(=O)c2ccc(Sc3ccc(C)cc3)c(N)c2)cc1OC
 : -0.9%[59 µM], -17.3%[46 µM], nt, nt, 24.9%, nt
> COC(=O)c1ccc(Sc2ccc(C)cc2)c(N)c1
 : -39.2%[12.7 µM], ?, ?, ?, -26.3%, 50.1µM*
> COc1cc(Sc2ccc(C)cc2)c(OC)cc1N
 : 3.55µM*, -4.9%, 3.55µM*, -1.2%, -6.0%, -23.1%
> COc1ccc(OC)c(CNC(=O)c2ccc(Sc3ccc(C)cc3)c(N)c2)c1
 : -5.1%[59 µM], -13.8%[46 µM], nt, nt, 18.4%, nt
> Cc1ccc(C(=O)NCc2ccc(F)cc2)cc1NC(=O)c1nsc2ccccc12
 : -6.2%[59 µM], 5.8%[46 µM], nt, nt, -0.9%, nt
> CCOCCCn1c(=N)c(C(=O)NC2CCCCC2)cc2c(=O)n3ccccc3nc21
 : -32.2%[59 µM], nt, nt, nt, -0.9%, nt
> CCN1Cc2c(/C=C/c3ccccc3)nc3ccc(OC)cc3c2N(c2cccc(Cl)c2)C1
 : 12.6µM*, nt, ?, ?, 0.3%, 13.0%
> COc1cccc(N2CCc3c(C)nc4ccc(Cl)cc4c32)c1
 : 40.7%, nt, nt, nt, ?, -5.6%
> CC(C)CC(=O)NC1(C(F)(F)F)C(=O)Nc2c1c(=O)[nH]c(=O)n2-c1ccccc1 (stereo unspecified)
 : 22.2%[59 µM], nt, nt, nt, 0.4%, nt
> CC(C)(C)OC(=O)N1CCC(c2c(C(=O)NCc3ccccn3)cnn2-c2ccccc2)CC1
 : 7.9%[59 µM], 1.3%[46 µM], nt, nt, 3.4%, nt
> CSc1ccccc1NC(=O)c1noc2c1CCC2
 : 14.1µM*, -9.6%, 25.1µM*, -6.3%, -30.5%, 20µM*
> COC(=O)c1ccccc1NC(=O)c1noc2c1CCC2
 : 44.7µM*, -10.5%, ?, -23.5%, -1.3%, ?
> Cc1ccc(O)c(NC(=O)c2noc3c2CCCC3)c1
 : 10.5%[59 µM], nt, nt, nt, -53.0%, nt
> O=C(CCCOc1ccccc1)Nc1nc2ccccc2[nH]1
 : -3.0%, nt, 7.9%, -2.5%, -35.6%, 14.2%
> O=S(=O)(CCOc1ccccc1)c1nc2ccccc2[nH]1
 : ?, ?, 6.31µM*, 2.5%, 15.7%, 14.5%
> Cc1cc(OCC(=O)NCCc2ccc(Cl)cc2)c2c(C)cc(=O)oc2c1
 : 47.1%[59 µM], nt, nt, nt, -0.2%, 8.8%
> O=[N+]([O-])/C(C(=C(Cl)Cl)N1CCOCC1)=C1\NCCO1
 : nt, 7.2%[46 µM], -4.0%, 2.3%, -0.8%, -15.1%
> CN1CCO/C1=C(\C(Cl)=C(Cl)Cl)[N+](=O)[O-]
 : 20µM*, 5.6%[46 µM], 1.6%, -1.0%, -3.2%, -3.0%

Some of the entries so far, as comma-separated lines.
SMILES,G9a block,LMNA splice mod,ALDH1A1 inh,JMJD2E inh,miR-21 reporter,Sfp PPTase inh
COC(=O)c1ccc(Sc2ccc(C)cc2)c(N)c1,-39.2%[12.7 µM],?,?,?,-26.3%,50.1µM*
COc1cc(Sc2ccc(C)cc2)c(OC)cc1N,3.55µM*,-4.9%,3.55µM*,-1.2%,-6.0%,-23.1%
COc1ccc(OC)c(CNC(=O)c2ccc(Sc3ccc(C)cc3)c(N)c2)c1,-5.1%[59 µM],-13.8%[46 µM],nt,nt,18.4%,nt
Cc1ccc(C(=O)NCc2ccc(F)cc2)cc1NC(=O)c1nsc2ccccc12,-6.2%[59 µM],5.8%[46 µM],nt,nt,-0.9%,nt

(listing goes on)
Results follow in this order: G9a block, LMNA splice mod, ALDH1A1 inh, JMJD2E inh, miR-21 reporter, Sfp PPTase inh
> CCN(CC)c1ccc(/C=N/N2CCN(Cc3ccc(Cl)cc3)CC2)c(O)c1
 : 10µM*, nt, nt, 2.8%, 7.0%, 2.7%
> Cc1ccc(CN2CCN(/N=C/c3ccc(C(=O)O)cc3)CC2)cc1
 : 7.94µM*, ?, -10.0%, -4.6%, 0.0%, -20.8%
> CCN(CC)c1ccc(/C=N\N2CCN(Cc3ccc(C)cc3)CC2)cc1
 : 7.08µM*, -20.8%[46 µM], 0.794µM*, -27.5%, -1.4%, -1.3%
> COc1ccc(/C=N/N2CCN(Cc3ccc(C)cc3)CC2)cc1Br
 : 44.7µM*, nt, nt, nt, -0.2%, 13.0%
> CCC(C)c1ccccc1NC(=O)C(C)OC(=O)CN1C(=O)NC(C)(C)C1=O (stereo unspecified)
 : -41.4%, nt, nt, nt, nt, nt
> CCCCCn1c(=O)[nH]c2cc(C(=O)NCCCN3CCCCC3CC)ccc2c1=O (stereo unspecified)
 : 8.9%, nt, nt, nt, -2.2%, 9.8%
> Cc1ccc(C2c3[nH]c4ccccc4c3CCN2C(=O)CCc2ccccc2)cc1 (stereo unspecified)
 : -31.3%[59 µM], ?, nt, nt, 22.2%, nt
> COc1ccc(/C=N/N2CCN(C)CC2)cc1O
 : 31.6µM*, 0.2%, -2.4%, ?, 8.7%, ?
> COc1cccc(/C=N/N2CCN(C)CC2)c1
 : -7.9%[59 µM], -7.5%, 1.7%, 13.7%, -18.1%, 10.1%
> COc1cc(NC(=O)Cn2cc(S(=O)(=O)N3CCC(C)CC3)c3ccccc3c2=O)cc(OC)c1OC
 : ?, nt, nt, nt, -6.2%, nt
> COc1ccc(-n2c(=O)c3c(c4cc(OC)ccc4n3C)n(Cc3cccc(OC)c3)c2=O)cc1
 : 2.0%[59 µM], nt, nt, nt, -5.9%, nt
> CCOc1ccccc1Nc1nc(-c2cccc(Cl)c2)c2c(n1)-c1ccccc1OC2
 : 25.1µM*, nt, nt, nt, 25.1%, nt
> c1ccc(-c2cc(-c3ccccc3)c3c(n2)-c2ccccc2OC3)cc1
 : 26.3%[59 µM], nt, nt, nt, -1.3%, nt
> Cc1cccc(C)c1CC(=O)N1CCOCC1
 : nt, nt, nt, nt, 1.6%, 7.9%
> O=[N+]([O-])c1ccc(Sc2nccn2Cc2ccccc2)c([N+](=O)[O-])c1
 : 44.7µM*, -24.3%, ?, -1.8%, 29.9%, -3.0%
> O=[N+]([O-])c1cc(C(F)(F)F)ccc1Sc1nccn1Cc1ccccc1
 : 44.7µM*, 0.5%, 2.7%, 4.6%, -1.9%, -8.3%
> Cn1ccnc1Sc1ccccc1[N+](=O)[O-]
 : ?, nt, -4.6%, -12.4%, -4.2%, -7.7%
> O=[N+]([O-])c1cc(C(F)(F)F)ccc1Sc1ccc2ccccc2n1
 : 39.8µM*, ?, ?, -11.6%, -2.8%, ?
> Nc1nc(Sc2ccc(C(F)(F)F)cc2[N+](=O)[O-])n[nH]1
 : -8.1%[12.7 µM], 4.5%, 10.8%, 4.0%, 0.9%, 10.8%
> CCOC(=O)c1noc2nc(C)n(CC(=O)NC(C)CC)c(=O)c12 (stereo unspecified)
 : 5.2%[59 µM], 14.8%[46 µM], nt, nt, 0.4%, nt
> CC(Sc1nc(-c2ccccc2)cc(C(F)(F)F)n1)C(=O)Nc1sc2c(c1C#N)CCC2 (stereo unspecified)
 : 39.8µM*, 0.6%, 5.0%, -8.9%, -11.0%, -11.3%
> CC(Sc1nc(-c2ccccc2)cc(C(F)(F)F)n1)C(=O)Nc1sc2c(c1C(N)=O)CCC2 (stereo unspecified)
 : ?, -10.3%, ?, 2.1%, -2.0%, ?
> CCOC(=O)c1c(NC(=O)c2ccc(OC)c(OC)c2)sc2c1CCCCC2
 : 8.91µM*, nt, nt, nt, 0.3%, nt
> CC(C)c1onc(C(=O)N2CCCCCC2)c1[N+](=O)[O-]
 : ?, ?, 25.1µM*, 7.0%, 5.9%, 21.2%
> CC(C)c1onc(C(=O)N2CCC(C(N)=O)CC2)c1[N+](=O)[O-]
 : nt, nt, nt, 1.4%, 2.1%, -0.6%
> CCOC(=O)c1c(NC(=O)c2cc(-c3ccc(OC)c(OC)c3)on2)sc2c1CCCC2
 : 3.98µM*, nt, nt, nt, 0.8%, nt
> CC(C)CC(NS(=O)(=O)c1ccc2c(c1)oc(=O)n2C)C(=O)NCCc1ccc(Cl)cc1 (stereo unspecified)
 : -25.8%[59 µM], nt, nt, nt, 0.1%, nt

Compound activity deposited in PubChem BioAssay by National Center for Advancing Translational Sciences (NCATS).
